The values below are quoted from earlier work in patent US9630841B2, “Method for producing an aqueous stable chlorine dioxide solution” (A.P.F. AQUA SYSTEM AG, priority 2010, dated 2017).

For the data set the following is noted: aqueous solution, 20° C.; cited from earlier work.

Consider sodium chlorite, for which the saturation concentration entry is reported as “about 64.5 wt %”.
